## Antibody variant affinities, Ab-14 light chain, assay B

Reference: Li et al. 2023, doi:10.1038/s41467-023-39022-2. File: FLAb, binding data.

The target is the same throughout: PDVDLGDISGINAS, from the HR2 region of SARS-CoV-2 spike.

Each scFv is VH, three GGGGS repeats, VL, as in the parent Ab-14, and differs from it in the CDRs of the light chain only.
VH: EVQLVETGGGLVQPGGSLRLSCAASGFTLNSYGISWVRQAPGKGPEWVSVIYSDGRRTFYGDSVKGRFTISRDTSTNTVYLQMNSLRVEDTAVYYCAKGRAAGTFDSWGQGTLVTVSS
VL: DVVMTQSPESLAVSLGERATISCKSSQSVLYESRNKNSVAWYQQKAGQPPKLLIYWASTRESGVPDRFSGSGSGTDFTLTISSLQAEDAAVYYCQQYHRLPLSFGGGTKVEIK

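The parent was found by panning a naive human phage display library on the peptide. The variants were designed computationally from a first round of random CDR variants and then made and measured. Their group label is 14L_En_Gen (En: ensemble of fine-tuned language models; Gen: genetic algorithm). Affinity was read by AlphaSeq, a pooled yeast mating assay with surface-displayed partners. The frequency of each diploid, read from paired DNA barcodes, reflects how well the two displayed proteins bind. Read counts were normalised to the haploid input and turned into Kd by a linear fit to BCL2-family pairs of known affinity, for each replicate. Each pool was mated in six replicate cultures.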

Variants are written as CDR1, CDR2 and CDR3 of the light chain (limits as in the source). Parent: KSSQSVLYESRNKNSVA, WASTRES, QQYHRLPLS.
Numbers give log10(Kd / nM), so 0 is 1 nM and 3 is 1 µM. Smaller is tighter.
Replicates are averaged; those with no signal do not enter the mean.
An entry "ND" has no value in the source: the pair was not observed among the diploids in that replicate. This suggests poor binding but is not conclusive.
As a blank, each scFv also met three strains without target: over all light chain designs, 4% of these pairings were detected, typically at 2.64 and seldom below 1.59. The control count says in how many pairings with the empty strains this scFv gave a signal, with their mean in brackets.
The authors' rule: three or more of the six replicates give a measured affinity, fewer mean a poor binder.
Values of this round are not directly comparable with the first-round values of the same sequences.

{"CDR-L1": "MISQLTNMGTFAINSVA", "CDR-L2": "QASIRNS", "CDR-L3": "QQYDRLPLI", "log10 Kd (nM) by replicate": "1.00 1.03 0.96 0.60 1.37 0.91", "mean log10 Kd (nM)": "0.98", "signal with controls": "1/18 (3.84)"}
{"CDR-L1": "MISQLYNMGMFAINSVA", "CDR-L2": "QASLRCN", "CDR-L3": "QQYDRLPLT", "log10 Kd (nM) by replicate": "ND ND ND 2.49 ND ND", "mean log10 Kd (nM)": "2.49", "signal with controls": "0/18"}
{"CDR-L1": "MMSQVWGMGQRHINNVA", "CDR-L2": "QTSTRED", "CDR-L3": "QQYDRLPLI", "log10 Kd (nM) by replicate": "0.17 0.17 0.01 -0.08 -0.05 0.01", "mean log10 Kd (nM)": "0.04", "signal with controls": "0/18"}
{"CDR-L1": "KITNTMRFEQKNSNNIA", "CDR-L2": "EVTTRSK", "CDR-L3": "QQYVRLPLA", "log10 Kd (nM) by replicate": "0.66 0.60 0.88 0.49 0.62 0.80", "mean log10 Kd (nM)": "0.68", "signal with controls": "0/18"}
{"CDR-L1": "MMSQVTGLGQRQRNNVA", "CDR-L2": "QTSTREE", "CDR-L3": "QQYDRLPLI", "log10 Kd (nM) by replicate": "0.45 0.50 0.44 0.13 0.57 0.50", "mean log10 Kd (nM)": "0.43", "signal with controls": "3/18 (2.64)"}
{"CDR-L1": "KLQSITGTEKVSKNNVA", "CDR-L2": "EMETRER", "CDR-L3": "QQYNRLPLS", "log10 Kd (nM) by replicate": "2.01 2.52 1.26 1.22 0.54 1.02", "mean log10 Kd (nM)": "1.43", "signal with controls": "0/18"}
{"CDR-L1": "MISQLMNMGQFAINSVA", "CDR-L2": "QASLRNE", "CDR-L3": "QQYDRLPLQ", "log10 Kd (nM) by replicate": "1.72 0.84 1.42 0.87 1.39 1.07", "mean log10 Kd (nM)": "1.22", "signal with controls": "1/18 (1.94)"}
{"CDR-L1": "KVSEFMRGLMSKKDSIA", "CDR-L2": "DNTTRNN", "CDR-L3": "QQYDRLPLS", "log10 Kd (nM) by replicate": "1.40 1.45 1.39 1.56 2.05 1.95", "mean log10 Kd (nM)": "1.63", "signal with controls": "3/18 (2.67)"}
{"CDR-L1": "MLSQMWALGMKAKNSVA", "CDR-L2": "QANMRFN", "CDR-L3": "QQYDRLPLI", "log10 Kd (nM) by replicate": "ND 3.10 3.08 ND ND ND", "mean log10 Kd (nM)": "3.09", "signal with controls": "1/18 (2.68)"}
{"CDR-L1": "MVTQMAMSGMTNKRSVA", "CDR-L2": "NAETREH", "CDR-L3": "QQYHHLPLI", "log10 Kd (nM) by replicate": "0.81 0.78 0.46 0.38 1.00 0.80", "mean log10 Kd (nM)": "0.70", "signal with controls": "0/18"}
{"CDR-L1": "MVTQMAMTGMKNKRSVA", "CDR-L2": "NAEMRED", "CDR-L3": "QQYHRLPLI", "log10 Kd (nM) by replicate": "0.25 0.64 0.35 0.30 0.36 0.28", "mean log10 Kd (nM)": "0.36", "signal with controls": "1/18 (1.95)"}
{"CDR-L1": "NLSGITAHESVKEDNIA", "CDR-L2": "ERSTREQ", "CDR-L3": "QQYNRLPLS", "log10 Kd (nM) by replicate": "0.41 0.24 0.24 0.05 0.63 0.41", "mean log10 Kd (nM)": "0.33", "signal with controls": "1/18 (3.87)"}
{"CDR-L1": "MVSQLMQWGLHRKNSIA", "CDR-L2": "EAVTRFN", "CDR-L3": "QQYDRLPLF", "log10 Kd (nM) by replicate": "ND 1.47 2.17 1.61 1.38 2.39", "mean log10 Kd (nM)": "1.80", "signal with controls": "1/18 (1.78)"}
{"CDR-L1": "MISQLYNMGQFAINSVA", "CDR-L2": "QASIRNS", "CDR-L3": "QQYDRLPLM", "log10 Kd (nM) by replicate": "ND ND 1.73 1.47 2.33 2.84", "mean log10 Kd (nM)": "2.09", "signal with controls": "0/18"}
{"CDR-L1": "KLVNFMNRGTHHTSNIA", "CDR-L2": "DAQNRID", "CDR-L3": "QQYARLPLA", "log10 Kd (nM) by replicate": "1.18 1.15 0.86 1.36 1.30 1.05", "mean log10 Kd (nM)": "1.15", "signal with controls": "1/18 (2.75)"}
{"CDR-L1": "KVSSFMRGLMMRKDSIA", "CDR-L2": "DNETRIN", "CDR-L3": "QQYDRLPLS", "log10 Kd (nM) by replicate": "2.08 1.39 2.96 1.75 1.84 1.79", "mean log10 Kd (nM)": "1.97", "signal with controls": "1/18 (3.41)"}
{"CDR-L1": "KLQMITGTEKVRGNNVA", "CDR-L2": "EMETREN", "CDR-L3": "QQYNRLPLS", "log10 Kd (nM) by replicate": "ND ND ND ND ND ND", "mean log10 Kd (nM)": "ND", "signal with controls": "0/18"}
{"CDR-L1": "SVSEFMKGLMMRTDSIA", "CDR-L2": "DNTTREN", "CDR-L3": "QQYDRLPLS", "log10 Kd (nM) by replicate": "ND ND 0.96 1.22 ND ND", "mean log10 Kd (nM)": "1.09", "signal with controls": "0/18"}
{"CDR-L1": "KLYDMAAVTMNNIRNVA", "CDR-L2": "DNSTREQ", "CDR-L3": "QQYHRLPLS", "log10 Kd (nM) by replicate": "0.52 0.29 0.51 0.49 0.25 0.53", "mean log10 Kd (nM)": "0.43", "signal with controls": "1/18 (2.82)"}
{"CDR-L1": "MVNGIMDHLSKQTNNVA", "CDR-L2": "ETETRNS", "CDR-L3": "QQYDRLPLS", "log10 Kd (nM) by replicate": "ND 1.94 2.20 2.12 ND 1.84", "mean log10 Kd (nM)": "2.03", "signal with controls": "1/18 (1.45)"}
{"CDR-L1": "MISQLTNMGQFAINSVA", "CDR-L2": "QASIRNA", "CDR-L3": "QQYDRLPLA", "log10 Kd (nM) by replicate": "0.72 0.89 1.12 0.60 1.01 1.04", "mean log10 Kd (nM)": "0.90", "signal with controls": "1/18 (2.73)"}
{"CDR-L1": "KISQMMRVGSTHQNSIA", "CDR-L2": "EVATRSK", "CDR-L3": "QQYHRLPLA", "log10 Kd (nM) by replicate": "ND ND ND ND ND 2.52", "mean log10 Kd (nM)": "2.52", "signal with controls": "0/18"}
{"CDR-L1": "KLYDMAAVTMQNIRNVA", "CDR-L2": "DNSTREY", "CDR-L3": "QQYNRLPLS", "log10 Kd (nM) by replicate": "2.43 ND ND ND ND ND", "mean log10 Kd (nM)": "2.43", "signal with controls": "0/18"}
{"CDR-L1": "KVSSFMRGLMMRKDSIA", "CDR-L2": "DNETRNN", "CDR-L3": "QQYDRLPLS", "log10 Kd (nM) by replicate": "0.54 0.21 0.67 0.75 0.41 0.75", "mean log10 Kd (nM)": "0.56", "signal with controls": "0/18"}
{"CDR-L1": "IVSQLMLWGMHAKNSIA", "CDR-L2": "EAEMRTN", "CDR-L3": "QQYDRLPLF", "log10 Kd (nM) by replicate": "ND ND ND 1.20 ND ND", "mean log10 Kd (nM)": "1.20", "signal with controls": "0/18"}

Extract of 2 entries:

{"CDR-L1": "NLSGITAHESVKEDNIA", "CDR-L2": "ERSTREQ", "CDR-L3": "QQYNRLPLS", "log10 Kd (nM) by replicate": "0.41 0.24 0.24 0.05 0.63 0.41", "mean log10 Kd (nM)": "0.33", "signal with controls": "1/18 (3.87)"}
{"CDR-L1": "KITNTMRFEQKNSNNIA", "CDR-L2": "EVTTRSK", "CDR-L3": "QQYVRLPLA", "log10 Kd (nM) by replicate": "0.66 0.60 0.88 0.49 0.62 0.80", "mean log10 Kd (nM)": "0.68", "signal with controls": "0/18"}